Values of other authors, collected in US5677346A, “Treating urinary incontinence using (S)-desethyloxybutynin” (Sepracor, Inc., priority 1995, dated 1997).

Tested on: muscarinic cholinergic receptors
Settings: antimuscarinic side effects; cited from earlier work

In the case of `CCN(CC)CC#CCOC(=O)C(O)(c1ccccc1)C1CCCCC1` (racemic) [RS-OXY, 4-(diethylamino)-2-butynyl α-cyclohexyl-α-hydroxybenzeneacetate, reference compound], the “side effects (in words)” value is listed as “xerostomia (dry mouth) and mydriasis (dilated pupils), which involve muscarinic cholinergic receptors, are very common side effects”.
